Laboratory results as given in publication PMC11085448 (Molecules, 2024).

By UniProt entry, the sequences of proteins in these tests, tags left out. Where a name states a change or a piece, a line headed by the entry shows the natural chain unless it says otherwise.
UniProt P41145: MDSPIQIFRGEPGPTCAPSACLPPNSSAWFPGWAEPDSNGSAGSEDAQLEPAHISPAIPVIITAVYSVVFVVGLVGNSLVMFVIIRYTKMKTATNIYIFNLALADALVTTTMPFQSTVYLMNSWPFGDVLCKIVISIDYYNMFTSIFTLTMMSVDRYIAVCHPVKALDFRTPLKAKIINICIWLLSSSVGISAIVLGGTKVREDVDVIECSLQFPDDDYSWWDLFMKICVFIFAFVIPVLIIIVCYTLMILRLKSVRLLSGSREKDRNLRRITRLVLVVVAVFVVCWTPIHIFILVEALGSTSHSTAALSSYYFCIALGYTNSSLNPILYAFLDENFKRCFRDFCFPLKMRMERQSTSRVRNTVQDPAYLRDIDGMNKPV

Target: human κ-opioid receptor (OPRK1) (Homo sapiens, UniProt P41145)
Test: forskolin-induced cAMP accumulation assay, KOR antagonist
Settings: CHO-K1 human KOR; versus EC90 of U50488H; Imax normalized to nor-BNI

Oc1ccc2c3c1O[C@H]1c4[nH]c5c(c4C[C@@]4(O)[C@@H](C2)N(CC2CC2)CC[C@]314)C[C@@]1(O)[C@H]2Cc3ccc(O)c4c3[C@@]1(CCN2CC1CC1)[C@H]5O4 [nor-BNI, reference compound]
KOR Antagonist %Imax ± SEM: 102.4 ± 1.2%
